The inhibition is how much of the control response was suppressed. Lower therefore signals a response near the control. As usually defined, the AUC(0-t) is the area under the concentration-time curve up to a stated or last time point. Higher therefore signals high exposure.

Protein sequences, listed by entry. Tags and fused reporters are not part of them.
UniProt P01375, whole entry: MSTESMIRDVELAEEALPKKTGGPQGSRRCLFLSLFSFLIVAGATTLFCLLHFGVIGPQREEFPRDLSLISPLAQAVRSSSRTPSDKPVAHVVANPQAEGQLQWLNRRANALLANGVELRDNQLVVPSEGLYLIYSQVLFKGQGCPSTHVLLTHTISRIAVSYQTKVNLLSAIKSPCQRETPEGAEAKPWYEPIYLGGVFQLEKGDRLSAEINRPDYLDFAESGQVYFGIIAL
UniProt Q96D31, whole entry, looked up: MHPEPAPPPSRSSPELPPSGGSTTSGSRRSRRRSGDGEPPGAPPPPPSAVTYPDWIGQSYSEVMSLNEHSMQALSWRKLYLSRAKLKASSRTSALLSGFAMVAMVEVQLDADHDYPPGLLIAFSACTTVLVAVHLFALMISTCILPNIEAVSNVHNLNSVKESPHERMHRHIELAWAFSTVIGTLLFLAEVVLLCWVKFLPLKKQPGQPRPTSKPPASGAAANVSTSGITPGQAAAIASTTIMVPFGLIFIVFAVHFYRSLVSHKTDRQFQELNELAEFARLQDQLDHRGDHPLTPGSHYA
UniProt Q13586, whole entry, looked up: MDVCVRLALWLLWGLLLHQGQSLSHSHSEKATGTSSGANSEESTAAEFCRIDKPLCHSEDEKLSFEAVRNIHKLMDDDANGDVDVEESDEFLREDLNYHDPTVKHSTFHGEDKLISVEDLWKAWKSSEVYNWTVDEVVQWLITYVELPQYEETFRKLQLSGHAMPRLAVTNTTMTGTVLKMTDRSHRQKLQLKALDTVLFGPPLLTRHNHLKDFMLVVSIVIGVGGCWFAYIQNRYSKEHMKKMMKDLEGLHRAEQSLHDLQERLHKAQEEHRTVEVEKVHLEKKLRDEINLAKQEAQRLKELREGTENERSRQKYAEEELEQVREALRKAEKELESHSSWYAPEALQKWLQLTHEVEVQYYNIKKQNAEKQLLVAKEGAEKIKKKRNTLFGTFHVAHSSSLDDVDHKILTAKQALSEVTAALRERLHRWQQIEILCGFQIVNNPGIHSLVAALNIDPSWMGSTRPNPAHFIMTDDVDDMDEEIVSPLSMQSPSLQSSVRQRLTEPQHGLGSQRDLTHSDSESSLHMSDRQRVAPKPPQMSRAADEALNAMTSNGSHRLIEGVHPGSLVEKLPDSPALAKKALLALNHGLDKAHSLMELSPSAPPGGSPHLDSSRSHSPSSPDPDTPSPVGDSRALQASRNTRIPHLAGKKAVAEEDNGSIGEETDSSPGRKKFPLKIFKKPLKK

Data set [1] deals with T1, Tumor necrosis factor (Homo sapiens, UniProt P01375). The conditions noted are these: Blood, dose 80.0 mg, time 1.0 day.
The target of data set [2] is T1, Tumor necrosis factor. The conditions noted are these: Blood, dose 160.0 mg, time 14.0 day.
Data set [3] concerns the target T1, Tumor necrosis factor. The conditions noted are these: Blood, dose 80.0 mg, time 1.0 day. This is another data set of the same source.
Data set [4] concerns the target T2, ORAI1/STIM1 (Homo sapiens) (UniProt Q96D31+Q13586). The conditions noted are these: HEK293, dose 300.0 nM, time 4.0 hrs.
Data set [5] has as its target T1, Tumor necrosis factor. The note with it: Blood, dose 80.0 mg, time 14.0 day.
Data set [6] has as its target T1, Tumor necrosis factor. The conditions noted are these: Blood, dose 160.0 mg, time 1.0 day.
For data set [7], the target named is T2, ORAI1/STIM1 (Homo sapiens). The note with it: HEK293, dose 100.0 nM, time 4.0 hrs.
Data set [8] addresses T1, Tumor necrosis factor. The note with it: Blood, dose 80.0 mg, time 14.0 day. This is another data set of the same source.
Data set [9] is described as follows: AUC(0 to t) in rat at 60 mg/kg/day after 13 weeks. The format is ADME, organism-based. Further details: time 13 weeks, dose 60 mg/kg/day. The note with it: in vivo.

Take `Cc1c(-c2ccc(NC(=O)c3c(F)cccc3F)cc2)cccc1-c1nn(C)c(=O)o1`: the inhibition in data set [1] was 21%; in [2], 86%; in [3] it was 57%; in [4], 77.6%; in data set [5], 82%; in [6] it was 66%. Further, the inhibition in data set [7] is 72.9%; in [8], 56%. Further, the AUC(0-t) at 2184 h in data set [9] is 72900 ng·h/mL.

These data come from ChEMBL document CHEMBL4831556, “Discovery of a Novel Potent and Selective Calcium Release-Activated Calcium Channel Inhibitor: 2,6-Difluoro-N-(2'-methyl-3'-(4-methyl-5-oxo-4,5-dihydro-1,3,4-oxadiazol-2-yl)-[1,1'-biphenyl]-4-yl)benzamide. Structure-Activity Relationship and Preclinical Characterization” (J Med Chem, 2021).
